# Data from US9206201B2, “Boronic acid bearing liphagane compounds as inhibitors of P13K-α and/or β” (COUNCIL OF SCIENTIFIC & INDUSTRIAL RESEARCH, priority 2012, dated 2015).
# The chains behind the UniProt entries cited, without tags or fusion partners.
# UniProt P42336, whole entry: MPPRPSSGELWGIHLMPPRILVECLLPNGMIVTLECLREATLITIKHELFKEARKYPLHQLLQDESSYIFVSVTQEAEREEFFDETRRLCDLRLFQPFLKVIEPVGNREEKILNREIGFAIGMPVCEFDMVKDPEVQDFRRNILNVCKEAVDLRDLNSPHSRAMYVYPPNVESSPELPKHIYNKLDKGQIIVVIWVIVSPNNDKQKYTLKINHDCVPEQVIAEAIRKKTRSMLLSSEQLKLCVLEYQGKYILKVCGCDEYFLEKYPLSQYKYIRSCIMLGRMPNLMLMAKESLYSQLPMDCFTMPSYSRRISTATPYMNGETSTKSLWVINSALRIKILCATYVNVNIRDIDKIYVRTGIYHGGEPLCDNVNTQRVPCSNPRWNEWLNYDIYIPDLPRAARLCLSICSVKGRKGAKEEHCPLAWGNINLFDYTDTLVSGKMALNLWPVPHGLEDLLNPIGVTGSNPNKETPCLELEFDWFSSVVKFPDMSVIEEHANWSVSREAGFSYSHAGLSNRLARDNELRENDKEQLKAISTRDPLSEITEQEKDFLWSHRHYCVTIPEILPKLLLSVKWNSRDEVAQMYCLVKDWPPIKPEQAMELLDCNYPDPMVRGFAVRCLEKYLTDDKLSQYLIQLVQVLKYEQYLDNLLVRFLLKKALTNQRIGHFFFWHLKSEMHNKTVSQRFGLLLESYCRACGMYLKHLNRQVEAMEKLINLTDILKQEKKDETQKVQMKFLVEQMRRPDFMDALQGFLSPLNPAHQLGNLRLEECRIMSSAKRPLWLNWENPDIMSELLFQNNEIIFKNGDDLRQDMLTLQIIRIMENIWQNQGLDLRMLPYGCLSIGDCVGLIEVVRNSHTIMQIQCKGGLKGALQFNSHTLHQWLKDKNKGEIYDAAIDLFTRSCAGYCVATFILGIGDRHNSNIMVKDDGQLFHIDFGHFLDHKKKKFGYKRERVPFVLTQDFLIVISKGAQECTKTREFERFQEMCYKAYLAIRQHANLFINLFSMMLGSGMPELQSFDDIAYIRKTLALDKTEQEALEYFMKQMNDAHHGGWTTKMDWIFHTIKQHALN
# What was measured:
# [1] = molecular target: PI3Kα (Homo sapiens (Human), UniProt P42336); test: PI3K inhibition assay (PI3 Kinase activity/inhibitor assay kit), PI3Kα; type: biochemical; details: read-out: IC50 against PI3Kα
# Procedure: PI3K inhibition assay (PI3K Assay (Emmanuelle M, Huang […] et al. Targeting Protein Translation in Human Non-Small Cell Lung Cancer via Combined MEK and Mammalian Target of Rapamycin Suppression. Cancer Res 67:(23). (2007).) was carried out by PI3 Kinase activity/inhibitor assay kit, where PI3 kinase reaction was set up in Glutathione-coated strips/plate for inhibitor reaction. Kinase and inhibitors were pre-incubated for 10 minutes prior to the addition of PIP2 substrate. 5 μL of 5× kinase reaction buffer were added in each well followed by the further addition of 5 μL/well of PIP2 substrate. Then distilled H2O was added to each well so as to make up a final volume of 25 μL/well. Incubation was done at rt for 1 hour which was followed by washing the wells 3 times with 200 μL of 1×TBST per well and then 2 times with 200 μL of IX TBS per well. Then 100 μL of the Substrate TMB per well was added and then to keep for colour development in the dark for 5-20 minutes. However, appearance of the blue color to avoid over-development were monitored. 100 μL of the stop solution per well was used to stop the reaction. Readings were recorded at 450 nm. The IC50 value of a drug measures the effectiveness of a compound in inhibiting biological or biochemical function. […]
# [2] = tested on: caco-2, colon human cancer cell line; test: Cell cycle analysis by flow cytometry (propidium iodide); details: for percentage of sub-G0 cells: 24 h
# [3] = tested on: HCT-115; test: MTT cytotoxic assay, colon (HCT-115) cell line; details: read-out: cell based IC50 (MTT), 48 h
# [4] = tested on: MCF-7; test: MTT cytotoxic assay, breast (MCF-7) cell line; details: read-out: cell based IC50 (MTT), 48 h
# [5] = tested on: caco-2 colon human cancer cell line; test: Annexin-V apoptotic assay by flow cytometry; details: 48 h
# [6] = tested on: caco-2; test: MTT cytotoxic assay, colon (caco-2) cell line; details: read-out: cell based IC50 (MTT), 48 h
smiles,measurement,setting,value
COc1cc2c3c(oc2c(B(O)O)c1OC)C(C)CC[C@@H]1C(C)(C)CCC[C@@]31C (relative stereo),IC50,[1],0.102 µM
same,percentage of sub-G0 cells,"[2]; caco-2, 1 μM",62.5%
same,percentage of sub-G0 cells,"[2]; caco-2, 5 μM",64.3%
same,percentage of sub-G0 cells,"[2]; caco-2, 7 μM",65.6%
same,percentage of sub-G0 cells,"[2]; caco-2, 9 μM",70.2%
same,cell cycle at G2/M phase,"[2]; caco-2, 24 h",not affected
same,IC50,[3],3.7 µM
same,IC50,[4],3.1 µM
same,cell population in early apoptotic phase,"[5]; caco-2, 1 μM",21.9%
same,percentage of late apoptotic cells,"[5]; caco-2, 1 μM",36.3%
same,cell population in early apoptotic phase,"[5]; caco-2, 5 μM",23.4%
same,percentage of late apoptotic cells,"[5]; caco-2, 5 μM",34.8%
same,cell population in early apoptotic phase,"[5]; caco-2, 7 μM",21.4%
same,percentage of late apoptotic cells,"[5]; caco-2, 7 μM",38.5%
same,cell population in early apoptotic phase,"[5]; caco-2, 9 μM",14.7%
same,percentage of late apoptotic cells,"[5]; caco-2, 9 μM",56.8%
same,IC50,[6],5.6 µM
